Target: hDOR (Homo sapiens, UniProt P41143)
Assay: Radioligand binding assay (Eurofins Cerep), [3H]DADLE displacement
Settings: DOR Ki ± SEM (nM)

Protein sequences, listed by entry. Tags and fused reporters are not part of them.
UniProt P41143, whole entry: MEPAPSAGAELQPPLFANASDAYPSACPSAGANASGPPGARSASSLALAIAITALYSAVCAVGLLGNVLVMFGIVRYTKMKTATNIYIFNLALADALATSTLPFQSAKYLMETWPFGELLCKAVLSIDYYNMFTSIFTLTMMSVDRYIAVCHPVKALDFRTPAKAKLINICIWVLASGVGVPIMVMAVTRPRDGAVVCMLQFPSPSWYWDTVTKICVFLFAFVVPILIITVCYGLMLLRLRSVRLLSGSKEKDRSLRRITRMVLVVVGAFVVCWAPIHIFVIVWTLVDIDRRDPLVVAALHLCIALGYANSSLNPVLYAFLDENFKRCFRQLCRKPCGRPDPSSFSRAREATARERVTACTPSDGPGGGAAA

C[C@@H](NC(=O)[C@@H](N)Cc1ccc(O)cc1)C(=O)NCC(=O)N(C)[C@@H](Cc1ccccc1)C(=O)NCCO [DAMGO, reference compound] gave a Ki of 655 nM.

Source: US20260234147A1 (priority 2023, published 2026)
